In US20060094649A1, “Hla-a1,-a2,-a3,-a24,-b7, and-b44 tumor associated antigen peptides and compositions” (priority 2002, published 2006):

Test system: HLA-B44 supertype molecules
Assay: HLA-B44 supertype cross-binding
Parameters: species or system human
Settings: number of the six B44 supertype alleles bound

Compound	Degeneracy
CSCC[C@H](NC(=O)[C@H](CCC(=O)O)NC(=O)[C@H](C)N)C(=O)N[C@@H](CC(C)C)C(=O)NCC(=O)N[C@@H](CO)C(=O)N[C@H](C(=O)N[C@H](C(=O)NCC(=O)O)C(C)C)C(C)C	5
CC(C)C[C@H](NC(=O)[C@H](Cc1ccc(O)cc1)NC(=O)[C@@H](NC(=O)[C@@H](NC(=O)[C@H](CC(N)=O)NC(=O)[C@H](CCC(N)=O)NC(=O)[C@H](C)NC(=O)[C@H](CCC(=O)O)NC(=O)[C@@H]1CCCN1C(=O)[C@H](CCC(=O)O)NC(=O)[C@@H](N)CS)[C@@H](C)O)[C@@H](C)O)C(=O)O	1
CC(C)C[C@H](NC(=O)[C@H](CC(=O)O)NC(=O)[C@@H]1CCCN1C(=O)[C@H](Cc1ccccc1)NC(=O)[C@@H](NC(=O)[C@H](CO)NC(=O)[C@@H]1CCCN1C(=O)CNC(=O)[C@H](CCC(=O)O)NC(=O)[C@H](CCC(=O)O)NC(=O)[C@@H](N)CCC(=O)O)[C@@H](C)O)C(=O)O	3
CC(C)C[C@H](NC(=O)[C@H](CC(=O)O)NC(=O)[C@@H]1CCCN1C(=O)[C@H](Cc1ccccc1)NC(=O)[C@@H](NC(=O)[C@H](CO)NC(=O)[C@@H]1CCCN1C(=O)CNC(=O)[C@H](CCC(=O)O)NC(=O)[C@@H](N)CCC(=O)O)[C@@H](C)O)C(=O)O	4
CC[C@H](C)[C@H](NC(=O)[C@H](CCCCN)NC(=O)[C@H](CCC(=O)O)NC(=O)[C@@H](N)CCC(=O)O)C(=O)N[C@@H](Cc1c[nH]c2ccccc12)C(=O)N[C@@H](CCC(=O)O)C(=O)N[C@@H](CCC(=O)O)C(=O)N[C@@H](CC(C)C)C(=O)N[C@@H](CO)C(=O)N[C@H](C(=O)N[C@@H](CC(C)C)C(=O)O)C(C)C	4
CC(C)C[C@H](NC(=O)[C@H](CCC(=O)O)NC(=O)[C@@H](N)CCC(=O)O)C(=O)N[C@@H](CO)C(=O)N[C@H](C(=O)N[C@@H](CC(C)C)C(=O)N[C@@H](CCC(=O)O)C(=O)N[C@H](C(=O)N[C@@H](Cc1ccccc1)C(=O)O)C(C)C)C(C)C	4
CC[C@H](C)[C@H](NC(=O)[C@H](CO)NC(=O)[C@H](CC(=O)O)NC(=O)[C@H](CCC(=O)O)NC(=O)[C@H](CCCNC(=N)N)NC(=O)CNC(=O)[C@H](CCC(=O)O)NC(=O)[C@@H](N)Cc1ccccc1)C(=O)O	2
CC[C@H](C)[C@H](NC(=O)[C@H](CO)NC(=O)[C@H](CC(=O)O)NC(=O)[C@H](CCC(=O)O)NC(=O)[C@H](CCCNC(=N)N)NC(=O)CNC(=O)[C@H](CCC(=O)O)NC(=O)[C@@H](N)Cc1ccccc1)C(=O)N[C@@H](CC(C)C)C(=O)O	3
CC[C@H](C)[C@H](NC(=O)[C@H](CO)NC(=O)[C@H](CC(=O)O)NC(=O)[C@H](CCC(=O)O)NC(=O)[C@H](CCCNC(=N)N)NC(=O)CNC(=O)[C@H](CCC(=O)O)NC(=O)[C@@H](N)Cc1ccccc1)C(=O)N[C@@H](CC(C)C)C(=O)NCC(=O)O	3
CC[C@H](C)[C@H](N)C(=O)N[C@@H](CCC(=O)O)C(=O)N[C@@H](CC(C)C)C(=O)N[C@@H](CCSC)C(=O)N[C@@H](CCC(=O)O)C(=O)N[C@H](C(=O)N[C@@H](CC(=O)O)C(=O)N1CCC[C@H]1C(=O)N[C@H](C(=O)NCC(=O)O)[C@@H](C)CC)C(C)C	1
CC(C)C[C@H](NC(=O)[C@@H](NC(=O)[C@H](CO)NC(=O)[C@H](CO)NC(=O)[C@H](CO)NC(=O)[C@H](CO)NC(=O)[C@H](C)NC(=O)[C@H](C)NC(=O)[C@H](CCC(=O)O)NC(=O)[C@@H](N)CCC(N)=O)[C@@H](C)O)C(=O)O	6
C[C@@H](O)[C@H](NC(=O)[C@H](CO)NC(=O)[C@@H]1CCCN1C(=O)CNC(=O)[C@H](CCC(=O)O)NC(=O)[C@H](CCC(=O)O)NC(=O)[C@H](CCC(=O)O)NC(=O)[C@@H](N)CCC(N)=O)C(=O)N[C@@H](Cc1ccccc1)C(=O)O	1
CC[C@H](C)[C@H](NC(=O)[C@H](CC(N)=O)NC(=O)[C@@H]1CCCN1C(=O)[C@@H](NC(=O)[C@H](Cc1ccccc1)NC(=O)[C@H](CC(C)C)NC(=O)[C@H](CCC(=O)O)NC(=O)[C@@H](N)CCC(N)=O)[C@@H](C)CC)C(=O)N[C@H](C(=O)N[C@H](C(=O)O)C(C)C)[C@@H](C)O	6
CC[C@H](C)[C@H](NC(=O)[C@H](CCCCN)NC(=O)[C@H](CCC(=O)O)NC(=O)[C@H](CCC(=O)O)NC(=O)[C@@H]1CCCN1C(=O)[C@H](C)NC(=O)[C@H](CS)NC(=O)[C@H](CC(=O)O)NC(=O)CNC(=O)[C@H](CCC(=O)O)NC(=O)[C@@H](N)CCCNC(=N)N)C(=O)O	2
CC(C)C[C@H](NC(=O)[C@H](CCC(=O)O)NC(=O)[C@H](CCC(=O)O)NC(=O)[C@@H](N)Cc1c[nH]c2ccccc12)C(=O)N[C@@H](CO)C(=O)N[C@H](C(=O)N[C@@H](CC(C)C)C(=O)N[C@@H](CCC(=O)O)C(=O)N[C@H](C(=O)O)C(C)C)C(C)C	3
CC(C)C[C@H](NC(=O)[C@H](C)NC(=O)[C@H](C)NC(=O)[C@H](CCC(N)=O)NC(=O)[C@H](Cc1ccccc1)NC(=O)[C@H](CCC(=O)O)NC(=O)[C@H](CO)NC(=O)[C@H](CCC(=O)O)NC(=O)[C@@H](N)CC(C)C)C(=O)O [LESEFQAAL]	6
CC(C)C[C@H](NC(=O)CNC(=O)[C@H](CCC(=O)O)NC(=O)CN)C(=O)N[C@@H](C)C(=O)N[C@@H](CS)C(=O)N[C@@H](Cc1c[nH]cn1)C(=O)N[C@@H](CCC(N)=O)C(=O)N[C@@H](CC(C)C)C(=O)N[C@@H](CS)C(=O)N[C@@H](C)C(=O)O [compound 433]	6
CC[C@H](C)[C@H](NC(=O)[C@@H]1CCCN1C(=O)[C@@H]1CCCN1C(=O)[C@H](CCC(N)=O)NC(=O)[C@@H]1CCCN1C(=O)[C@H](CC(C)C)NC(=O)[C@H](CCCNC(=N)N)NC(=O)[C@H](CCC(=O)O)NC(=O)CN)C(=O)O [compound 437]	6
CC[C@H](C)[C@H](NC(=O)[C@H](CCC(=O)O)NC(=O)[C@@H](NC(=O)[C@H](CC(C)C)NC(=O)[C@H](CO)NC(=O)[C@H](CCCNC(=N)N)NC(=O)[C@H](CC(C)C)NC(=O)[C@H](CCC(N)=O)NC(=O)[C@H](CC(C)C)NC(=O)[C@H](CCC(=O)O)NC(=O)[C@@H](N)CCCNC(=N)N)[C@@H](C)O)C(=O)O [compound 440]	6

Other lines, results leading:

Degeneracy	Compound
5	CC(C)C[C@H](NC(=O)[C@H](CC(C)C)NC(=O)[C@H](Cc1ccccc1)NC(=O)[C@H](Cc1c[nH]cn1)NC(=O)[C@@H](NC(=O)[C@H](CC(C)C)NC(=O)[C@H](CCC(=O)O)NC(=O)[C@H](C)N)C(C)C)C(=O)O
6	CC(C)C[C@H](NC(=O)[C@H](CC(C)C)NC(=O)[C@H](CC(C)C)NC(=O)[C@H](Cc1ccccc1)NC(=O)[C@H](Cc1c[nH]cn1)NC(=O)[C@@H](NC(=O)[C@H](CC(C)C)NC(=O)[C@H](CCC(=O)O)NC(=O)[C@H](C)N)C(C)C)C(=O)O
5	CC(C)C[C@H](NC(=O)[C@H](CC(C)C)NC(=O)[C@H](CC(C)C)NC(=O)[C@H](Cc1ccccc1)NC(=O)[C@H](Cc1c[nH]cn1)NC(=O)[C@@H](NC(=O)[C@H](CC(C)C)NC(=O)[C@H](CCC(=O)O)NC(=O)[C@H](C)N)C(C)C)C(=O)N[C@@H](CCCCN)C(=O)N[C@@H](Cc1ccc(O)cc1)C(=O)O
3	C[C@@H](O)[C@H](NC(=O)[C@H](CO)NC(=O)[C@@H]1CCCN1C(=O)CNC(=O)[C@H](CCC(=O)O)NC(=O)[C@H](CCC(=O)O)NC(=O)[C@@H](N)CCC(=O)O)C(=O)N[C@@H](Cc1ccccc1)C(=O)O
4	CC[C@H](C)[C@H](N)C(=O)N[C@@H](CCC(=O)O)C(=O)N[C@@H](CC(C)C)C(=O)N[C@@H](CCSC)C(=O)N[C@@H](CCC(=O)O)C(=O)N[C@H](C(=O)N[C@@H](CC(=O)O)C(=O)N1CCC[C@H]1C(=O)N[C@H](C(=O)O)[C@@H](C)CC)C(C)C
2	CC[C@H](C)[C@H](NC(=O)[C@H](CO)NC(=O)[C@H](CC(=O)O)NC(=O)[C@H](CCC(=O)O)NC(=O)[C@H](CCCNC(=N)N)NC(=O)CNC(=O)[C@H](CCC(=O)O)NC(=O)[C@H](Cc1ccccc1)NC(=O)[C@@H](NC(=O)[C@H](CCC(=O)O)NC(=O)[C@@H](N)CC(C)C)C(C)C)C(=O)O
6	CC[C@H](C)[C@H](NC(=O)[C@H](Cc1ccc(O)cc1)NC(=O)[C@H](CC(C)C)NC(=O)[C@H](Cc1c[nH]cn1)NC(=O)CNC(=O)[C@@H](NC(=O)[C@@H]1CCCN1C(=O)[C@H](CC(=O)O)NC(=O)[C@@H](NC(=O)[C@H](CCC(=O)O)NC(=O)[C@@H](N)CCSC)C(C)C)[C@@H](C)CC)C(=O)O
2	C[C@H](NC(=O)[C@H](C)NC(=O)[C@H](CCC(=O)O)NC(=O)[C@@H](N)CCC(N)=O)C(=O)N[C@@H](CO)C(=O)N[C@@H](CO)C(=O)N[C@@H](CO)C(=O)N[C@@H](CO)C(=O)N[C@H](C(=O)O)[C@@H](C)O
6	CSCC[C@H](N)C(=O)N[C@@H](CCC(=O)O)C(=O)N[C@@H](CC(C)C)C(=O)N[C@@H](C)C(=O)N[C@@H](C)C(=O)N[C@@H](CC(C)C)C(=O)N[C@@H](CS)C(=O)N[C@@H](CCCNC(=N)N)C(=O)N[C@@H](Cc1c[nH]c2ccccc12)C(=O)NCC(=O)N[C@@H](CC(C)C)C(=O)O [compound 430]
6	CC(C)C[C@H](NC(=O)[C@H](CO)NC(=O)[C@H](C)NC(=O)[C@H](CC(N)=O)NC(=O)[C@@H](NC(=O)[C@@H]1CCCN1C(=O)[C@H](CC(C)C)NC(=O)[C@H](Cc1ccc(O)cc1)NC(=O)[C@@H](NC(=O)[C@H](CC(C)C)NC(=O)[C@H](CCC(=O)O)NC(=O)[C@@H](N)CC(C)C)[C@@H](C)O)[C@@H](C)O)C(=O)O [compound 431]
6	CC[C@H](C)[C@H](NC(=O)[C@H](CC(C)C)NC(=O)[C@@H](NC(=O)[C@H](Cc1ccc(O)cc1)NC(=O)CNC(=O)[C@H](CCC(N)=O)NC(=O)[C@@H](NC(=O)[C@H](CCC(=O)O)NC(=O)[C@@H](N)CCC(N)=O)C(C)C)C(C)C)C(=O)O [compound 432]
6	CC[C@H](C)[C@H](NC(=O)[C@H](CO)NC(=O)[C@@H](NC(=O)[C@H](CC(C)C)NC(=O)[C@@H]1CCCN1C(=O)[C@H](CO)NC(=O)[C@H](C)NC(=O)[C@H](CCCNC(=N)N)NC(=O)[C@H](CCC(N)=O)NC(=O)[C@H](CCC(=O)O)NC(=O)[C@H](C)N)[C@@H](C)O)C(=O)O [compound 435]
6	CC(C)C[C@H](NC(=O)CNC(=O)[C@H](CC(C)C)NC(=O)[C@H](Cc1ccc(O)cc1)NC(=O)[C@H](CCC(=O)O)NC(=O)[C@@H]1CCCN1C(=O)[C@H](CC(N)=O)NC(=O)[C@H](CCC(=O)O)NC(=O)[C@H](C)N)C(=O)O [compound 439]
